In this test the target is Human CatS (Homo sapiens, UniProt P25774). Nature of the test: CatS inhibition of hydrolysis of fluorescent substrate Z-Val-Val-Arg-AFC. The settings on record: read-out: CatS Ki^app; apparent Ki, Morrison equation fit of initial rates; 10 μM Z-Val-Val-Arg-AFC, pH 5.0, 1.5 nM CatS.

Chains of the proteins cited; added tags and fusions are not shown. Residues count along the entry.
UniProt P25774, 115-331 limits assumed: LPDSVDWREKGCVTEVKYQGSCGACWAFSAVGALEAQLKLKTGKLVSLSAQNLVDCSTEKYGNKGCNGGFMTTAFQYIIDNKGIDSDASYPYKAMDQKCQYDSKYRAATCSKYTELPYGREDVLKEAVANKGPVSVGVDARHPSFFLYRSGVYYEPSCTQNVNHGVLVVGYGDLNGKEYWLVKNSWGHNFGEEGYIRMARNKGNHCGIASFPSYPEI

The text below walks through data of US20080207683A1, “BIARYL-S[…]-PYRAZOLO-PYRIDINE MODULATORS OF CATHEPSIN S” (priority 2007, published 2008).

Take `COc1cccc(CNCCNC(=O)c2cccc(-c3cc(-c4nn(CCCN5CCCC5)c5c4CN(S(C)(=O)=O)CC5)ccc3Cl)c2)c1`: the Ki came out at 1.39 µM.
